Assay results: ChEMBL document CHEMBL1123691, “Multisubstrate inhibitors of dopamine beta-hydroxylase. 2. Structure-activity relationships at the phenethylamine binding site” (J Med Chem, 1987)

What was measured:
[1] = target: T1, Dopamine beta-hydroxylase (Bos taurus) (UniProt P15101); experiment: Inhibitor dissociation constant vs. tyramine substrate against Dopamine beta hydroxylase at pH 4.5.
T1 sequence (whole entry): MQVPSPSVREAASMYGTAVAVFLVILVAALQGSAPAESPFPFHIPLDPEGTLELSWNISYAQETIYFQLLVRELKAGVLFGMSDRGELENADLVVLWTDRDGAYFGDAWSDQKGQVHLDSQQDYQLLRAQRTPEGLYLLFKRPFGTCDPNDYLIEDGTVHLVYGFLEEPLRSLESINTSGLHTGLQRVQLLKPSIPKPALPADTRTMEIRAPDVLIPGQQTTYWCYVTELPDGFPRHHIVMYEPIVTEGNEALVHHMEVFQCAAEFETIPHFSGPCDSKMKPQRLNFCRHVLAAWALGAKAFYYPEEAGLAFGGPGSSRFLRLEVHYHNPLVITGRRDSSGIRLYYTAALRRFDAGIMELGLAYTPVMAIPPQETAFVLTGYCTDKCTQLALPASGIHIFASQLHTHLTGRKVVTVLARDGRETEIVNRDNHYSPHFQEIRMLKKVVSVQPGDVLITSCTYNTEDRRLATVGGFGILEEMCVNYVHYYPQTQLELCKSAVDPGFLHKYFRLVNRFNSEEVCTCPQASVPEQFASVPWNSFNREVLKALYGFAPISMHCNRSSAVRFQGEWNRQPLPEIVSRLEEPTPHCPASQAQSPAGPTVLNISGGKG
How it was run: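 Homogeneous purified DBH with specific activity 25-42 units/mg, with tyramine as the varied substrate. The pH 4.5 condition is predominantly ordered: phenethylamine binds before oxygen. The pH 6.6 condition is random. Kis is from standard competitive/noncompetitive kinetic fits, reported as mean ± SEM.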

[2] = target: T1, Dopamine beta-hydroxylase (Bos taurus); experiment: Inhibitor dissociation constant vs. tyramine substrate against Dopamine beta hydroxylase at pH 6.0
How it was run: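 Purified homogeneous DBH, specific activity 25-42 units/mg, assayed at pH 6.0 with tyramine as the varied substrate. Kis taken as slope inhibition constant from Cleland COMP/NONCOMP fits; mean ± SEM.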

[3] = target: T1, Dopamine beta-hydroxylase (Bos taurus)
[4] = target: T1, Dopamine beta-hydroxylase (Bos taurus); remark: listed apart in the source
[5] = target: T1, Dopamine beta-hydroxylase (Bos taurus); remark: listed apart in the source

Structure (SMILES): S=c1[nH]ccn1Cc1cc(Cl)cc(Cl)c1
Kis [1]: 0.024 µM

Structure (SMILES): Oc1c(Cl)cc(Cn2cc[nH]c2=S)cc1Cl
Kis [1]: 0.018 µM

Structure (SMILES): Oc1ccc(Cn2cc[nH]c2=S)cc1F
Kis [3]: 0.045 µM

Structure (SMILES): Oc1ccc(Cn2cc[nH]c2=S)cc1
Kis [4]: 0.088 µM

Structure (SMILES): Fc1ccc(Cn2cc[nH]c2=S)cc1
Kis [2]: 0.99 µM

The next lines start with the values.

Kis [2]: 26 µM
Structure (SMILES): COc1ccc(Cn2cc[nH]c2=S)cc1

Kis [5]: 2.74 µM
Structure (SMILES): S=c1[nH]ccn1Cc1ccc(Cl)cc1

One block for each molecule: values may come before it.
